{
  "source": "paper PMC9898191",
  "about": "(Nature chemical biology, 2022)",
  "key": {"[1]": {"tested_on": "entospletinib-resistant MV4-11 cells", "experiment": "XTT cell proliferation assay, entospletinib-resistant MV4-11 cells", "assay_type": "cell-based, human"}, "[2]": {"molecular_target": "Syk complex with FLT3, ERK1/2 and STAT3/5 in naïve MV4-11 cells (Homo sapiens, UniProt P43405)", "experiment": "Co-immunoprecipitation with anti-Syk antibody, naïve MV4-11 cells", "assay_type": "cell-based", "details": "5 μM"}, "Syk in MV4-11 cells": {"molecular_target": "Syk in MV4-11 cells (Homo sapiens, UniProt P43405)", "experiment": "WC36B-streptavidin pull down assay with immunoblotting", "assay_type": "binding", "details": "WC36 10 μM, entospletinib 10 μM, ATP 1 mM"}},
  "data": [
    {"smiles": "c1cn2cc(-c3ccc4cn[nH]c4c3)nc(Nc3ccc(N4CCOCC4)cc3)c2n1", "note": "[entospletinib]", "values": [
      {"measurement": "inhibition at 20 µM", "setting": "[1]; Homo sapiens, MV4-11, read-out: Imax of proliferation inhibition (XTT assay)", "result": "≤ 50", "unit": "%"},
      {"measurement": "inhibition of proliferation (XTT assay)", "setting": "[1]; entospletinib-resistant MV4-11 cells", "result": "could not effectively suppress the proliferation"},
      {"measurement": "scaffolding function of Syk (co-precipitation of FLT3, ERK1/2 and STAT3/5)", "setting": "[2]", "result": "little to no effect"},
      {"measurement": "competition with WC36B for Syk binding", "setting": "Syk in MV4-11 cells", "result": "only WC36 was able to compete"}
    ]}
  ]
}
